The experiment addresses Cholinesterase (Equus caballus, UniProt P81908). Description: Inhibition of equine serum butyrylcholinesterase using […] as substrate preincubated for 30 mins followed by substrate addition measured after 2.5 mins by Ellman's spectrophotometric method. The procedure, abridged:
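Ellman assay at 25 °C in phosphate buffer pH 8.0. Enzyme (AChE from human erythrocytes, BChE from equine or human serum; 2.5 units/mL stock with 2 mg/mL BSA) and DTNB (0.3 mM in assay) preincubated with compound from ethanol stocks (1 nM−1 mM in assay). Acetyl- or butyrylthiocholine added (452 μM in assay), absorbance at 412 nm after 2.5 min. Ethanol control, triplicates, IC50 from activity vs log concentration.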
(In general: Ellman's reagent forms a yellow product with free thiols.)

Sequences of proteins named here, by UniProt entry; tags and fusion partners are left off.
UniProt P81908, whole entry: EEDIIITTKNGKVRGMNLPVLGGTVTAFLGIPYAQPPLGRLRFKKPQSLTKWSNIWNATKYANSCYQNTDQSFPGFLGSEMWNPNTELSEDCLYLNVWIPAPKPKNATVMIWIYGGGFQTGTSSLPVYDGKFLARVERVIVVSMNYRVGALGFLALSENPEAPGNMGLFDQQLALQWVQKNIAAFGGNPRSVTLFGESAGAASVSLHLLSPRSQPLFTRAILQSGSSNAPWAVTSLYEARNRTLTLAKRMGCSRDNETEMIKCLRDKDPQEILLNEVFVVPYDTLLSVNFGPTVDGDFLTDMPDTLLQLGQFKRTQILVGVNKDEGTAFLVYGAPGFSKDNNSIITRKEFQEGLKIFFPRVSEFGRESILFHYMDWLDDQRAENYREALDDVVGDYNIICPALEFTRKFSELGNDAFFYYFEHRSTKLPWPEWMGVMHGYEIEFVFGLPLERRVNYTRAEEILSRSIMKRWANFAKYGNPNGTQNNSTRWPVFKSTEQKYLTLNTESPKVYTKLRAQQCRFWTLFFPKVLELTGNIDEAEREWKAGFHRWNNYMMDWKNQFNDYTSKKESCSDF

The source of these data is ChEMBL document CHEMBL3785077 (J Med Chem, 2016).

Regarding `CNC(=O)Oc1ccc2c(c1)[C@]1(C)CCN(C)[C@@H]1N2C` [PHYSOSTIGMINE], the midpoint of inhibition, the IC50, lay at 0.078 µM.
